Assay results published in US20090036485A1, “Quinoline derivatives” (priority 2004, published 2009).

The chains behind the UniProt entries cited, without tags or fusion partners. Residues count along the entry.
UniProt P16234, 550-1089 limits assumed: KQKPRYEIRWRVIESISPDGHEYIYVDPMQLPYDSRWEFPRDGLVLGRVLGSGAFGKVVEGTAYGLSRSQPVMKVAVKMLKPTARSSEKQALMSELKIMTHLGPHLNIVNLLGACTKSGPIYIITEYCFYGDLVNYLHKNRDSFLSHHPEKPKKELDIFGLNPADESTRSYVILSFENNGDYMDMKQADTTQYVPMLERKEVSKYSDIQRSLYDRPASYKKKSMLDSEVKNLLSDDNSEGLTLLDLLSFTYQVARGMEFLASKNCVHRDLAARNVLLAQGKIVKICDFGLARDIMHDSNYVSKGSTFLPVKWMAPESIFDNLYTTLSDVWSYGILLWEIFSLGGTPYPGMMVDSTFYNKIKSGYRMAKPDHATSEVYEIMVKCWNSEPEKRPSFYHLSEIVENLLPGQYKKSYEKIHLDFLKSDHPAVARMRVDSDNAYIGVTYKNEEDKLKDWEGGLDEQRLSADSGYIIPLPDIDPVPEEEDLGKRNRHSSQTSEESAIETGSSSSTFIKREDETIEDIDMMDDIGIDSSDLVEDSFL
UniProt P09619, 33-1106 limits assumed: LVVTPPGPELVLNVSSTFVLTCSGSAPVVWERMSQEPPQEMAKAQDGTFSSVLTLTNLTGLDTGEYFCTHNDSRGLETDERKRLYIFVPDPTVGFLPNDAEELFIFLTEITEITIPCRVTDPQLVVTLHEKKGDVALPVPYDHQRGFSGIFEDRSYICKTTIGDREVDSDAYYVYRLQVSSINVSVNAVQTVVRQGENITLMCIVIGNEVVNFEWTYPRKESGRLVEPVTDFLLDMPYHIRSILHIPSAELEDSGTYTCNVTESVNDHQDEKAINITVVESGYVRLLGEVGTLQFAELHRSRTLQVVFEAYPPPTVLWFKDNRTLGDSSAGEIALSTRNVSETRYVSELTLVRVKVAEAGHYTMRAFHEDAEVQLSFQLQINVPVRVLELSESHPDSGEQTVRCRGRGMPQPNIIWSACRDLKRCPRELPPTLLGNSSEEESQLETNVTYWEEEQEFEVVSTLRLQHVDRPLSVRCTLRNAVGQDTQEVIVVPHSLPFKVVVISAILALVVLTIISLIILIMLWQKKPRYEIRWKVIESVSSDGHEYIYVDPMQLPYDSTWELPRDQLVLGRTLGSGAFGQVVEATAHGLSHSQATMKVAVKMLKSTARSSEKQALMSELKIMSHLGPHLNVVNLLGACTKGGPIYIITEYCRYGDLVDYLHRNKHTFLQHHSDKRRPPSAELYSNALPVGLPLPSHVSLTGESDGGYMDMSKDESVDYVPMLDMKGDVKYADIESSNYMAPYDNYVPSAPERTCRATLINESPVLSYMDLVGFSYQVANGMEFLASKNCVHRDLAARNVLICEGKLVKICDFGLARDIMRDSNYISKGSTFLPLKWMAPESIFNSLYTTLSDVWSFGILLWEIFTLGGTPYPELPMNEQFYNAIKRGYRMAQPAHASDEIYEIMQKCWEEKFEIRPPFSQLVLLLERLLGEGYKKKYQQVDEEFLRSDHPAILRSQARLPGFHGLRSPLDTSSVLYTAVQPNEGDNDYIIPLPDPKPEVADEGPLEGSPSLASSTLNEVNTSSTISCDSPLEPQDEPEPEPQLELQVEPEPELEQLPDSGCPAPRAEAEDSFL
UniProt P09619, 554-1106 limits assumed: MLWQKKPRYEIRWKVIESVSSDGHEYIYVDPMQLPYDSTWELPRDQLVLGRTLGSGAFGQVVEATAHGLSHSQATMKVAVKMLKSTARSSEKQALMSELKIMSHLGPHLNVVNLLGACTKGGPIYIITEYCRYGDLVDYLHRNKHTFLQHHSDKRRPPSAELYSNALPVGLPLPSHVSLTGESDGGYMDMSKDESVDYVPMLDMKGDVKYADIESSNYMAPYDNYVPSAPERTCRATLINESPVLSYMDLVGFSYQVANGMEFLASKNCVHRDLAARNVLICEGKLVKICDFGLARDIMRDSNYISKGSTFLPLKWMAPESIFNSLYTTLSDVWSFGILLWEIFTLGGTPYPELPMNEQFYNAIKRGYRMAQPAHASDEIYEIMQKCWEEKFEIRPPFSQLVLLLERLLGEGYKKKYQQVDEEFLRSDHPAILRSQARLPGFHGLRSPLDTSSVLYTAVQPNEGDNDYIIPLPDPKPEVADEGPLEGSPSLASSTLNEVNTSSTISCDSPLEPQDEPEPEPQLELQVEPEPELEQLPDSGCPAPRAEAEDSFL
UniProt P35968, 786-1356 limits assumed: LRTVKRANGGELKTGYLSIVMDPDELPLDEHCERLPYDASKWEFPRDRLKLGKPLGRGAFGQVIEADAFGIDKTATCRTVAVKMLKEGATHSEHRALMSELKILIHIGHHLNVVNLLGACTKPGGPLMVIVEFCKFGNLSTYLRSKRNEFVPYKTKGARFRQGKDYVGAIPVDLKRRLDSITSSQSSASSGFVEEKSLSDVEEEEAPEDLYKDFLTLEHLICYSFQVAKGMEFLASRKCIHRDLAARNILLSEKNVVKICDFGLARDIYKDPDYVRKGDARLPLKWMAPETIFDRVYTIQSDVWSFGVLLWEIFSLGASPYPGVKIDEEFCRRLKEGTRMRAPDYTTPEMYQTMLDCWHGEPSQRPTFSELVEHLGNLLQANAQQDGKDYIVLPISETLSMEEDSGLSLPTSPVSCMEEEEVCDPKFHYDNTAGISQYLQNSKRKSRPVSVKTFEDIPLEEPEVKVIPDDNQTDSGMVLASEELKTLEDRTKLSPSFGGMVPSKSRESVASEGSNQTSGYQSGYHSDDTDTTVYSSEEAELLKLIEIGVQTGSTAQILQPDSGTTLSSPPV

Columns and labels:
PDGFRα tyrosine kinase = PDGFRα tyrosine kinase (Homo sapiens, UniProt P16234); experiment: In vitro enzyme assay (ELISA), PDGFRα tyrosine kinase; settings: read-out: IC50 versus PDGFRα tyrosine kinase; Test (a); ATP 14 μM
Experimental: The ability of test compounds to inhibit the phosphorylation of a tyrosine containing polypeptide substrate by the tyrosine kinase enzymes PDGFRα, PDGFRβ and KDR was assessed using conventional ELISA assays.
DNA encoding the PDGFRα, PDGFRβ or KDR receptor cytoplasmic domains may be obtained by total gene synthesis (International Biotechnology Lab., 1987, 5(3), 19-25) or by cloning. The DNA fragments may be expressed in a suitable expression system to obtain polypeptide with tyrosine kinase activity. For example, PDGFRα, PDGFRβ and KDR receptor cytoplasmic domains, obtained by expression of recombinant protein in insect cells, can be shown to display intrinsic tyrosine kinase activity. In the case of the VEGF receptor KDR (Genbank Accession No. L04947), a DNA fragment encoding most of the cytoplasmic domain, commencing with methionine 806 and including the termination codon may be cloned into a baculovirus transplacement vector [for example pAcYM1 (see The Baculovirus Expression System: A Laboratory Guide, L. A. King and R. D. Possee, Chapman and Hall, 1992) or pAc360 or pBlueBacHis (available from Invitrogen Corporation)]. This recombinant construct may be co-transfected into insect cells [for example Spodoptera frugiperda 21(Sf21) or Spodoptera frugiperda 9(Sf9)] with viral DNA (for example Pharmingen BaculoGold) to prepare recombinant baculovirus. […]

PDGFRβ tyrosine kinase = PDGFRβ tyrosine kinase (Homo sapiens, UniProt P09619); experiment: In vitro enzyme assay (ELISA), PDGFRβ tyrosine kinase; type: biochemical; settings: read-out: IC50 versus PDGFRβ tyrosine kinase; Test (a); ATP 2.8 μM
KDR tyrosine kinase = KDR tyrosine kinase (Homo sapiens, UniProt P35968); experiment: In vitro enzyme assay (ELISA), KDR tyrosine kinase; settings: read-out: IC50 versus KDR tyrosine kinase; Test (a); ATP 8 μM
phospho-Tyr751 PDGFRβ = phospho-Tyr751 PDGFRβ (Homo sapiens, UniProt P09619); experiment: In vitro phospho-Tyr751 PDGFRβ ELISA assay in MG63 osteosarcoma cells; settings: read-out: IC50 versus phospho-Tyr751 PDGFRβ; Test (b); MG63 cells stimulated with PDGFBB

Row | Compound | IC50 (PDGFRα tyrosine kinase) [nM] | IC50 (PDGFRβ tyrosine kinase) [nM] | IC50 (KDR tyrosine kinase) [nM] | IC50 (phospho-Tyr751 PDGFRβ) [nM]
1 | COc1cc2nccc(Oc3cnn(CC(=O)Nc4cccc(N(C)C)c4)c3)c2cc1OC | 100 | 20 | 1300 | < 1
2 | COc1cc2nccc(Oc3cnn(CC(=O)Nc4ccc(N(C)C)cn4)c3)c2cc1C#N | – | – | 3000 | 10
